Reference: article PMC7614775 (Nature chemical biology, 2022)

Sequences of proteins named here, by UniProt entry; tags and fusion partners are left off. A change or cut given only in a name is not applied to a line headed by its entry.
UniProt P29597: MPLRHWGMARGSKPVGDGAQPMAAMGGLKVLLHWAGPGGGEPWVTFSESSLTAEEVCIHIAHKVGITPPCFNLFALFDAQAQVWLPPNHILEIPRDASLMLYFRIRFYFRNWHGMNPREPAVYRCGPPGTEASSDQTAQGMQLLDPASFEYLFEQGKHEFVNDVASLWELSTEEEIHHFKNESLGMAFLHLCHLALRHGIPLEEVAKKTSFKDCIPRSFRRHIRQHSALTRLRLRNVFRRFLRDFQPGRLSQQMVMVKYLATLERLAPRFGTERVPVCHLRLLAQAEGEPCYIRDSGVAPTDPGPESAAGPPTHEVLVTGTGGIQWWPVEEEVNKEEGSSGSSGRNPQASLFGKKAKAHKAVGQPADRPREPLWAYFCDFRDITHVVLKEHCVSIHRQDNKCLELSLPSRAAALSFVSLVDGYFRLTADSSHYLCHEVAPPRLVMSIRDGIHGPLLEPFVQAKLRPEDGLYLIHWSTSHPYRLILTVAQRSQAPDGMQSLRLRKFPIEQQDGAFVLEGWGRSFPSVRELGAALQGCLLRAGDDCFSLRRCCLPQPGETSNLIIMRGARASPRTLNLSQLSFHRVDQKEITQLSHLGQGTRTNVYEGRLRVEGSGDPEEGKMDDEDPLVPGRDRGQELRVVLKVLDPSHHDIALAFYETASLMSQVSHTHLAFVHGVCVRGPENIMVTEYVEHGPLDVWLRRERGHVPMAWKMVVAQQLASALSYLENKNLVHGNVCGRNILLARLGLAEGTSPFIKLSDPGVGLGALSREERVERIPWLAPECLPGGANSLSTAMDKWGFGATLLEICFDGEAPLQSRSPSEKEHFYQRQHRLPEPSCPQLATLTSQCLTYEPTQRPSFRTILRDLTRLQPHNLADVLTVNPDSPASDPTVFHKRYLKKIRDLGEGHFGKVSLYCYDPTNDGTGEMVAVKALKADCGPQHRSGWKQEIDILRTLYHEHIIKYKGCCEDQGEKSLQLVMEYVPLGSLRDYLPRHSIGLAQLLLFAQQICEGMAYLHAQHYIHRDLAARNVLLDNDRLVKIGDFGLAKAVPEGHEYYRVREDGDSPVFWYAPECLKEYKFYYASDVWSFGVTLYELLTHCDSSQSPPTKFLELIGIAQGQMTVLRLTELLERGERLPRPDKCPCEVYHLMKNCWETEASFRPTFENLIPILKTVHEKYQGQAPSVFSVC

Target: TYK2 phosphorylation (pTYK2) (Homo sapiens, UniProt P29597)
Test: TYK2 phosphorylation western blot in 22Rv1 cells expressing TYK2 variants
Assay type: cell-based
Conditions: WT-TYK2

“deucravacitinib [BMS-986165, reference compound]” was tested, and the “effect on phosphorylation of the TYK2 activation loop” value was “suppressed”.
